The chains behind the UniProt entries cited, without tags or fusion partners. Residues count along the entry.
UniProt G1SYA7, 1-469: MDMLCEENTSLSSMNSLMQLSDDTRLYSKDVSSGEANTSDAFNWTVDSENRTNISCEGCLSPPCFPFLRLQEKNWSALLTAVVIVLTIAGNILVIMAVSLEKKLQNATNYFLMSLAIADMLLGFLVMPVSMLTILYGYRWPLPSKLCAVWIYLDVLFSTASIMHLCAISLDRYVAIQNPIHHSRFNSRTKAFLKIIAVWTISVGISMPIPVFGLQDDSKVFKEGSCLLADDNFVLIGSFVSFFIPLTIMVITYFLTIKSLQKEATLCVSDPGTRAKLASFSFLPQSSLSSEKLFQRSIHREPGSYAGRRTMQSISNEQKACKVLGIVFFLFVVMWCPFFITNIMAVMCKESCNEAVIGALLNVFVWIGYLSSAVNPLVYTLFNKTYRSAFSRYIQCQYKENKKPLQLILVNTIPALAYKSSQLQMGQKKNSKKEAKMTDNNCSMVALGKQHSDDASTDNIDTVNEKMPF

According to paper PMC3272148 (2011):

Molecular target: serotonin2A (5-HT2A) receptor (Oryctolagus cuniculus, UniProt G1SYA7)

Structure (SMILES) | Ki [nM]
COc1cc(CC(C)N)c(OC)cc1I (racemic) [DOI, (±)-1-(2,5-dimethoxy-4-iodophenyl)-2-aminopropane] | 12.5
CCN(CC)C(=O)[C@@H]1C=C2c3cccc4[nH]cc(c34)C[C@H]2N(C)C1 [LSD] | 0.46
